# Test results: ChEMBL document CHEMBL1131637, “Novel and selective 5-HT2C/2B receptor antagonists as potential anxiolytic agents: synthesis, quantitative structure-activity relationships, and molecular modeling of substituted 1-(3-pyridylcarbamoyl)indolines” (J Med Chem, 1998)
# Protein sequences, listed by entry. Tags and fused reporters are not part of them. Lines headed by an entry give the natural chain unless they say otherwise; changes in a name come on top.
# UniProt P28223, whole entry: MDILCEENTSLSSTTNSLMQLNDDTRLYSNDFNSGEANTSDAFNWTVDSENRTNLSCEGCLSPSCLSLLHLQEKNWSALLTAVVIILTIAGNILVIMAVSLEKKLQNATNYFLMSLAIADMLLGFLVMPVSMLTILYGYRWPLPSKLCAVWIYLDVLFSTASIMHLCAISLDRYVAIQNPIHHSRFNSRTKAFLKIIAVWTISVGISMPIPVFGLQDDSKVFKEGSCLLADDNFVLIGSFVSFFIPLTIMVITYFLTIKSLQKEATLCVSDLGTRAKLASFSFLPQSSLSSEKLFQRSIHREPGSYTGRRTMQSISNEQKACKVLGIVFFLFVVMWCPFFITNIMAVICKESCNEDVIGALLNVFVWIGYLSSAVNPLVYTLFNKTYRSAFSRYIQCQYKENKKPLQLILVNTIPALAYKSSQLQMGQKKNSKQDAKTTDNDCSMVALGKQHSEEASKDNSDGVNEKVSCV
# UniProt P28335: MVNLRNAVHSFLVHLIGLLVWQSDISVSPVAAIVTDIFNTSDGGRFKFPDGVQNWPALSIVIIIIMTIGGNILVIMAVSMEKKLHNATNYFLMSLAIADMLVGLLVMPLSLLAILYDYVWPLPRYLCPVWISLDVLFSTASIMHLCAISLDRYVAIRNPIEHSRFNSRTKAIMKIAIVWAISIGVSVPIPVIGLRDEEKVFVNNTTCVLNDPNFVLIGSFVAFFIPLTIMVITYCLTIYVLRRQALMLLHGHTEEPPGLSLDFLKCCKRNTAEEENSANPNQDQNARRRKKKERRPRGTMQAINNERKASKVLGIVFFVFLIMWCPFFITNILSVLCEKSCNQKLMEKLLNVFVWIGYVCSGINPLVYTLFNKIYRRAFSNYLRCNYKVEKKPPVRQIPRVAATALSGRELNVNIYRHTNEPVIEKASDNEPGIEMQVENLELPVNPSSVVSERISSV
# What was measured:
# [1] = target: 5-hydroxytryptamine receptor 2A (Homo sapiens, UniProt P28223); test: Binding affinity towards human 5-hydroxytryptamine 2A receptor expressed in HEK 293 cells using [3H]ketanserin as radioligand; assay type: cell-based, HEK293
# In short: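 Radioligand binding on human cloned receptors stably expressed in HEK 293 cells; 5-HT2A labelled with [3H]ketanserin, 5-HT2B with [3H]-5-HT. Values are means of at least two determinations, each within 0.2 log unit of the mean.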
# [2] = target: 5-hydroxytryptamine receptor 2C (Homo sapiens, UniProt P28335); test: Binding affinity towards cloned human 5-hydroxytryptamine 2C receptor expressed in HEK 293 cells using [3H]mesulergine as radioligand; assay type: cell-based, HEK293
compound,measurement,setting,value
O=C(Nc1cccnc1)N1CCc2c1ccc(Cl)c2Cl,Ki,[1],631 nM
same,Ki,[2],25.1 nM
